# In paper PMC6194023, “YLT-11, a novel PLK4 inhibitor, inhibits human breast cancer growth via inducing maladjusted centriole duplication and mitotic defect” (Cell Death & Disease, 2018):
# The chains behind the UniProt entries cited, without tags or fusion partners. Where a name states a change or a piece, a line headed by the entry shows the natural chain unless it says otherwise.
# UniProt O00444: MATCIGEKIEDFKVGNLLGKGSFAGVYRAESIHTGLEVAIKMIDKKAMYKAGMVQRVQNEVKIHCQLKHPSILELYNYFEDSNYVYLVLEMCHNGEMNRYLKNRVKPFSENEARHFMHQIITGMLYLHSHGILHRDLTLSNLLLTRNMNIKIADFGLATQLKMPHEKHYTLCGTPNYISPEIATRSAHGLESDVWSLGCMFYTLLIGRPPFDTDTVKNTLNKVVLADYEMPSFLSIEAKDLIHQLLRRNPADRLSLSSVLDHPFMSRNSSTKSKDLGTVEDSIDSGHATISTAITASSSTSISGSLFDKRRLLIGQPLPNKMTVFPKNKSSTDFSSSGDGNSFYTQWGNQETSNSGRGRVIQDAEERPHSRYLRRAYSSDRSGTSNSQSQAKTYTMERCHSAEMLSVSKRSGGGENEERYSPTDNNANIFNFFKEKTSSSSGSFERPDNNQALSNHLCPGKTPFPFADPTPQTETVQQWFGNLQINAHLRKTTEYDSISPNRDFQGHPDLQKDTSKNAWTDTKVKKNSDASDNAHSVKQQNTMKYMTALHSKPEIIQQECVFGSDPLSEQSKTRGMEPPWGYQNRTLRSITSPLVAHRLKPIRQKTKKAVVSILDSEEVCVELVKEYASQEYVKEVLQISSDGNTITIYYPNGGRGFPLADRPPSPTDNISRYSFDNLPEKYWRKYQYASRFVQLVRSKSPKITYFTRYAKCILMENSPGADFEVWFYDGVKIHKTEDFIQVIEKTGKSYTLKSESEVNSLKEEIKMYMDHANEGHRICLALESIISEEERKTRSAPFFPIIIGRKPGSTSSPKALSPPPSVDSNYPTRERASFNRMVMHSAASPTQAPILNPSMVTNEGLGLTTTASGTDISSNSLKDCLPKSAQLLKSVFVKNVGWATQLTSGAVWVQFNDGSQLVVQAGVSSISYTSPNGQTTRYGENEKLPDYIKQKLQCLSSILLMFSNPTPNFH
# Key:
# PLK4 [1] = molecular target: T1, PLK4 (Homo sapiens, UniProt O00444); assay: biochemical
# Experimental: The lysates were centrifuged and filtered to remove cell debris. […] The kinase concentration in the eluates was measured by qPCR.
# PLK4 [2] = molecular target: T1, PLK4; settings: 10 μM, MDA-MB-231 lysates, 40 to 55 ℃
structure (smiles),measurement,setting,value
"CC(=O)Nc1nccc(-c2ccc3c(/C=C/c4ccc(CN(C)C)cc4)n[nH]c3c2)n1 [YLT-11, (E)-N-(4-(3-(4-((dimethylamino)methyl)styryl)-1H-indazol-6-yl)pyrimidin-2-yl)acetamide]",Kd,PLK4 [1],5.2 nM
same,thermal stability of PLK4,PLK4 [2],increased the thermal stability of PLK4
